Patent US9999655B2, “Use of MKS inhibitor peptide-containing compositions for treating non-small cell lung cancer with same” (Moerae Matrix, Inc., priority 2015, dated 2018)

Test system: 266 human kinases
Assay type: biochemical
Settings: JNK1α1(h); peptide 100 μM
Protocol: Every kinase activity measurement was conducted in duplicate.
IC50 (half maximal inhibitory concentrations) value for the MK2 inhibitor peptides identified below was determined using Millipore's IC50 Profiler Express service. […] Specifically, in these assays, a positively charged substrate is phosphorylated with a radiolabeled phosphate group from an ATP if the kinase is not inhibited by an inhibitor peptide. The positively charged substrate then is attracted to a negatively charged filter membrane, quantified with a scintillation counter, and compared to a 100% activity control.

In the case of “YARAAARQARAKALNRQLGVA (Mammalian) [MMI-0200]”, the “% activity” value is reported as 106%.
